Results: patent publication US20230346820A1, “METHODS AND COMPOSITIONS FOR THE TREATMENT OF SARS-COV-2” (priority 2020, published 2023)

How the values were obtained:
[1] = in vitro; conditions: human
[2] = in vitro; conditions: human; remark: listed apart in the source

COc1ccc(C[C@H]2NC[C@H](O)[C@H]2OC(C)=O)cc1 [ANISOMYCIN]
CC50 at 48 h [1]: 5.98 µM | CC50 [2]: 0.189 µM
